According to patent publication US20140303386A1, “COMPOSITIONS AND METHODS FOR ENHANCING LIPID PRODUCTION IN […] INDUCTION OF CELL CYCLE ARREST” (RUTGERS, THE STATE UNIVERSITY OF NEW JERSEY, priority 2011, published 2014):

Experiments:
[1] = tested on: marine diatom Phaeodactylum tricornutum; conditions: inhibitor applied to exponentially growing cells, continuous light, F/2 media
[2] = tested on: marine diatom Phaeodactylum tricornutum; conditions: treated vs untreated cells

## Nc1nc(OCC2CCCCC2)c2nc[nH]c2n1 [NU 2058, 6-(Cyclohexylmethoxy)-9H-purin-2-amine]
[1]
  specific growth rate: dose-dependent decrease
[2]
  nitrate assimilation (nitrate reductase activity), of the activity of untreated cells: about 35%
